# pIC50: −log10 of the molar value.
# Amino acid sequences for entries named in this document (tags omitted). Residues count along the entry.
# UniProt P23739, 1014-1841 limits assumed: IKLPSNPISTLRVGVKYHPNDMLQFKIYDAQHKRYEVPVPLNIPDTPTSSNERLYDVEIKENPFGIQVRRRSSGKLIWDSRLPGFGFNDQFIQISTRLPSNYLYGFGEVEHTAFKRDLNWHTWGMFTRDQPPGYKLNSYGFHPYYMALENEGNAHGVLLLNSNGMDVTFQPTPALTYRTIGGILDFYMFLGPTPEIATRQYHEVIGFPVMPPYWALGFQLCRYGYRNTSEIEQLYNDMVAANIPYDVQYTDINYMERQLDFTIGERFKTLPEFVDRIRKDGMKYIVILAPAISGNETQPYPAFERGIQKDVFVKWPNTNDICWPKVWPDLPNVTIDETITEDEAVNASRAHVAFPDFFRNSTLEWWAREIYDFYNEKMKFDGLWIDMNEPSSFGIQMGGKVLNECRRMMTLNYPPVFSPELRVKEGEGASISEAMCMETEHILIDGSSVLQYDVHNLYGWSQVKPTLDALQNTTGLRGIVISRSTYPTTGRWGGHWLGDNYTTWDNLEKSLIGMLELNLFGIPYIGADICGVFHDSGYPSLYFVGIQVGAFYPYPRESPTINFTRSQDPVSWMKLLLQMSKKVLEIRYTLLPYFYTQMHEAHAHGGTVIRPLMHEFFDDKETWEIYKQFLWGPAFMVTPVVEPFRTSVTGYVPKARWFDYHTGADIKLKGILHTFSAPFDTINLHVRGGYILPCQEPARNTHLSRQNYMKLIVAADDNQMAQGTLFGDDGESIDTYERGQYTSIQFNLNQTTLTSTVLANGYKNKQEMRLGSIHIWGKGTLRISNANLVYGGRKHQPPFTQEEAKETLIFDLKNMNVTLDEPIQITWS
# UniProt P23739, 1-1013 partner limits assumed: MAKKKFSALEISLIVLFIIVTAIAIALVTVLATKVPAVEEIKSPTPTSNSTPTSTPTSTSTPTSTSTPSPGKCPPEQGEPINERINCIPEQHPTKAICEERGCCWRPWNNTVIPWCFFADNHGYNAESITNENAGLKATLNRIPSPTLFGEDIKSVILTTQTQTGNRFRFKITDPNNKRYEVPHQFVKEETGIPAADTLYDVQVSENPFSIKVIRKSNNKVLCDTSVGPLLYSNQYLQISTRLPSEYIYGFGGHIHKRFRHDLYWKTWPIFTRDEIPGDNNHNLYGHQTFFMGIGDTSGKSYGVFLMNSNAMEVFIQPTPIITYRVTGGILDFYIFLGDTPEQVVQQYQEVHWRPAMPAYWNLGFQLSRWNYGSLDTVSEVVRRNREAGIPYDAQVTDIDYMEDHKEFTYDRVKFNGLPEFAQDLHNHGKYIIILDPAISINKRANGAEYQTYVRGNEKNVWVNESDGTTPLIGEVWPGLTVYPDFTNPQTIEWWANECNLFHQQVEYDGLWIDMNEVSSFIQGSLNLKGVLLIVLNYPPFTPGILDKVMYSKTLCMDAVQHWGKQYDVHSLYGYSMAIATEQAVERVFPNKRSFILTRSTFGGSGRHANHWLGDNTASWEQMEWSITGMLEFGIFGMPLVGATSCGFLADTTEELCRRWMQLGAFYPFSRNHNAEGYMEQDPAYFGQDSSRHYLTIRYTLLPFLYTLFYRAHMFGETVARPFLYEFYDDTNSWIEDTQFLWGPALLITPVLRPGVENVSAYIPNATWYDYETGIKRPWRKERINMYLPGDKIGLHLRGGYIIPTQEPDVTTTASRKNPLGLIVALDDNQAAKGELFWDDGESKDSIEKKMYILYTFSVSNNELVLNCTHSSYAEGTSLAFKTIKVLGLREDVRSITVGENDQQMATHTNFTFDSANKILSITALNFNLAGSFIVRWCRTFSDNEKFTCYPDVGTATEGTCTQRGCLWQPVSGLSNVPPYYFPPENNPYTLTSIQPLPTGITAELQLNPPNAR
# Molecular target: T1, Sucrase (rat small intestine) (Rattus norvegicus, UniProt P23739)
# T1 construct: Sucrase (rat small intestine); from tissue; host or cells: rat small intestine
# Experiment: Enzyme inhibition: sucrase
# Format: biochemical
compound,measurement,value
C[C@H]1O[C@H](O[C@H]2[C@H](O)[C@@H](O)[C@@H](O[C@H]3[C@H](O)[C@@H](O)C(O)O[C@@H]3CO)O[C@@H]2CO)[C@H](O)[C@@H](O)[C@@H]1N[C@H]1C=C(CO)[C@@H](O)[C@H](O)[C@H]1O (stereo partly shown) [acarbose],pIC50,5.19
